Values of other authors, collected in patent US20170088822A1 (priority 2015, published 2017).

Molecular target: T1, FabI from Staphylococcus aureus (SaFabI) (Staphylococcus aureus, UniProt Q6GI75)
T1 sequence (Q6GI75 1-256): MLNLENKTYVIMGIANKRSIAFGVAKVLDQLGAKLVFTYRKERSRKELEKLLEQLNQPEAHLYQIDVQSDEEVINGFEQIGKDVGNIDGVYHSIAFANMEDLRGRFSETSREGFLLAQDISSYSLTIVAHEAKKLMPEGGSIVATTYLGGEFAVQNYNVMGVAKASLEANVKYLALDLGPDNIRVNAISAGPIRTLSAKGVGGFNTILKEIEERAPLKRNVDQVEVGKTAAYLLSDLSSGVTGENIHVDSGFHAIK
Details: cited from earlier work

In the case of AFN-1252, the IC50 is given as 14 nM.
